Values of other authors as cited in publication PMC6966871.

Tested on: NSCLC harboring c-MET exon14 skipping mutations
Parameters: method as in doi:10.1200/JCO.2018.36.15_suppl.9016
Details: NSCLC with c-MET exon14 skipping mutations (9/15); cited from earlier work

In the case of `CN1CCC(COc2cnc(-c3cccc(Cn4nc(-c5cccc(C#N)c5)ccc4=O)c3)nc2)CC1` [tepotinib], the ORR is listed as 60%.
